The nature of the assay: Inhibition of farnesyltransferase (unknown origin). On the set-up: species or system Homo sapiens.

In turn, `CSCC[C@H](NC(=O)[C@@H]1CCCN1C(=O)[C@@H](NC(=O)[C@@H](N)CS)C(C)C)C(=O)O` yielded an IC50 of 120 nM.

A word on the IC50: it is the concentration that gives 50% inhibition. Lower therefore signals inhibition by little substance.

These data come from ChEMBL document CHEMBL5257037, “Side Chain Cyclized Aromatic Amino Acids: Great Tools as Local Constraints in Peptide and Peptidomimetic Design” (J Med Chem, 2016).
